The experiment has as its system patients with a single variant in the ChAT gene (340L>F or 510R>Q). The experiment is described as follows: Treatment with an AChE inhibitor of patients carrying a ChAT gene variant. The experiment is classed as in vivo, human.

This is an account of results in patent US20160051527A1, “METHODS AND KITS FOR TREATING AND CLASSIFYING INDIVIDUALS AT RISK OF OR SUFFERING FROM A NEUROLOGICAL DYSFUNCTION OR DISORDER” (priority 2013, published 2016).

As to `COc1cc2c(cc1OC)C(=O)C(CC1CCN(Cc3ccccc3)CC1)C2` (centres unmarked) [Aricept], the cognitive decline result (second treated patient) is on record as “reversal of cognitive decline”. The “clinical benefit of treatment” value (two patients with ChAT variant, anecdotal) was “substantial anecdotal benefit”.
